High-throughput results (PubChem BioAssay)
RAD54 inh – RAD54 (human) branch migration inhibition; RAD54 Holliday junction branch migration, FAM/BHQ fluorescence; inhibition, % at 10.4 µM; 0.14% of 360,000 active; Q92698; AID 602329;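 active = mean normalized replicate activity at least 40 and at least half of replicates scoring 40 or more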;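 note: inhibitors cause a drop in the FAM fluorescence signal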
PglD DTNB – PglD (C. jejuni) enzyme inhibition; purified PglD enzyme, DTNB colorimetric CoA detection; inhibition, % at 12.5 µM; 0.098% of 360,000 active; AID 602405; in the data active = inhibition above about 16%, passing the limit was not always enough
RAD52 inh – blocks human RAD52 DNA annealing; 0.46% of 360,000 active; inhibition, % at 18.7 µM; recombinant RAD52 DNA annealing, FRET fluorescence; AID 651710;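 active = every replicate showing at least 50% inhibition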
CASP6 VEID inh – caspase-6 (human) enzyme inhibition; P55212; purified caspase-6, Z-VEID-R110 cleavage fluorescence; inhibition, % at 12.5 µM; 0.53% of 350,000 active; AID 686996;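 active = mean inhibition across replicates at least about 35%, with every replicate also reaching that limit, limit read from the data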
UUG fidelity – alters start codon recognition fidelity in yeast. S. cerevisiae UUG-firefly luciferase reporter, luminescence/redox ratio. activity score, % at 18.7 µM. 0.13% of 350,000 active. AID 602363;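 active = replicate mean at a twofold rise or more, about +100% in these data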;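 also: firefly luciferase made from a UUG start codon reports start codon fidelity; reporter light over untreated wells divided by growth signal over untreated wells; some hits fall short of that in this replicate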
INS-1E GSIS act – primary screen for activators of insulin secretion dependent on glucose, INS-1E cells, GLuc reporter luminescence; INS-1E GLuc reporter insulin secretion, 2-3 h; activation, % at 16.6 µM; 0.61% of 370,000 active; AID 743287;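 active = lowest replicate activation of at least 40%, so every replicate reaches that level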
DNA binder FP – binds DNA, flagging false RAD52 inhibitor hits; 8% of 1,000 active; AID 652128; AC50, µM; Salmon sperm DNA/acridine orange FP displacement, DNA binding; shares compounds with RAD52 inh;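 active = fitted half-maximal concentration for signal loss at or below twice the highest dose tested, in every separate run, actives reach about 64 µM in these data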
Numbers stand for hits. Most compounds without a hit are left out; they make up all but 1.5% or so of the library.

For COc1cc2ccccc2cc1C(=O)N(CCN(C)C)c1nc2ccc(Br)cc2s1 the results were RAD54 inh inactive, PglD DTNB inactive, RAD52 inh 50.8, CASP6 VEID inh inactive, UUG fidelity inactive, INS-1E GSIS act inactive and DNA binder FP inactive.
COc1cc2ccccc2cc1C(=O)N(CCN(C)C)c1nc2c(F)cc(F)cc2s1 was read as RAD54 inh inactive, PglD DTNB inactive, RAD52 inh inactive, CASP6 VEID inh inactive, UUG fidelity inactive and INS-1E GSIS act inactive.
CN(C)CCCN(C(=O)c1ccco1)c1nc2ccc(Br)cc2s1 was read as RAD52 inh 57.1, CASP6 VEID inh inactive, INS-1E GSIS act inactive and DNA binder FP inactive.
For COc1ccc2sc(N(CCN(C)C)C(=O)c3cc(Cl)sc3Cl)nc2c1 the results were RAD52 inh inactive, CASP6 VEID inh inactive and INS-1E GSIS act inactive.
Screening COc1ccc(OC)c2sc(N(CCN(C)C)C(=O)c3cc(Cl)sc3Cl)nc12 returned RAD52 inh 51.0, CASP6 VEID inh inactive, INS-1E GSIS act inactive and DNA binder FP inactive.
N/C(=N\OC(=O)Oc1ccccc1)c1ccc([N+](=O)[O-])cc1 was read as RAD54 inh inactive, PglD DTNB inactive, UUG fidelity inactive and INS-1E GSIS act inactive.
Screening CSc1ccc2c(c1)C(N1CCN(C)CC1)Cc1ccc(F)cc1S2 (configuration not stated) returned RAD54 inh inactive, PglD DTNB inactive, RAD52 inh 50.6, CASP6 VEID inh inactive, UUG fidelity inactive, INS-1E GSIS act inactive and DNA binder FP inactive.
Screening Cc1cc(C)n(C(=O)c2cccc(S(=O)(=O)N3CCCC3)c2)n1 returned RAD54 inh inactive, PglD DTNB inactive, UUG fidelity inactive and INS-1E GSIS act inactive.
Cc1ccccc1S(=O)(=O)N1C[C@@H](O)COC[C@@H]2O[C@@H](CC(=O)N3CCOCC3)CC[C@H]21 was read as RAD54 inh inactive, PglD DTNB inactive, RAD52 inh inactive, CASP6 VEID inh inactive, UUG fidelity inactive and INS-1E GSIS act inactive.
Screening CC(=O)c1ccc(-c2cnc3c(NC=O)cc(-c4ccc(N5CCN(C)CC5)cc4)cn23)cc1 returned RAD54 inh inactive, PglD DTNB inactive, RAD52 inh 67.0, CASP6 VEID inh inactive, UUG fidelity inactive and DNA binder FP inactive.
Screening NCCCC[C@H]1CNC(=S)N1CCCCC1CCCCC1 returned RAD54 inh inactive, PglD DTNB inactive, RAD52 inh 85.6, CASP6 VEID inh inactive, UUG fidelity inactive, INS-1E GSIS act inactive and DNA binder FP inactive.
NCCCC[C@H]1CNC(=O)C(=O)N1CCc1cc(C(F)(F)F)cc(C(F)(F)F)c1 was read as RAD54 inh inactive, PglD DTNB inactive, RAD52 inh inactive, CASP6 VEID inh inactive, UUG fidelity inactive and INS-1E GSIS act inactive.
`NCCCC[C@H]1CNC(=S)N1CCc1cc(C(F)(F)F)cc(C(F)(F)F)c1` gave RAD54 inh inactive, PglD DTNB inactive, RAD52 inh 66.7, CASP6 VEID inh inactive, UUG fidelity inactive and DNA binder FP inactive.
`CSCCC(NS(=O)(=O)c1ccc(F)cc1)C(=O)NCc1ccc(S(N)(=O)=O)cc1` (configuration not stated) gave RAD54 inh inactive, PglD DTNB inactive, RAD52 inh inactive, CASP6 VEID inh inactive and UUG fidelity inactive.
`COCC(=O)Nc1ccc2c(c1)C(=O)N(C)C[C@H](OC)[C@@H](C)CN[C@H](C)CO2` gave RAD54 inh inactive, PglD DTNB inactive and INS-1E GSIS act inactive.
For CC(=O)OCCc1c2ccccc2c(CCCN(C)C)c2ccccc12 the results were RAD52 inh 69.3, CASP6 VEID inh inactive and DNA binder FP inactive.
For CC(=O)OCCc1[nH]c2ccccc2c1C the results were RAD54 inh inactive, PglD DTNB inactive, RAD52 inh inactive, CASP6 VEID inh inactive, UUG fidelity inactive and INS-1E GSIS act inactive.
For CCOC(=O)c1c(C)n(CC(O)CN(C)C)c2cc(Br)c(OC)cc12 (configuration not stated) the results were RAD52 inh 84.6, CASP6 VEID inh inactive, INS-1E GSIS act inactive and DNA binder FP inactive.
Screening NC(=O)c1ccc[n+](CC(=O)NCc2ccc(Cl)cc2)c1 returned RAD54 inh inactive, PglD DTNB inactive, RAD52 inh inactive, CASP6 VEID inh inactive, UUG fidelity inactive and INS-1E GSIS act inactive.
N#Cc1ccc(N)cc1OCCCN1CCCCC1 was read as RAD54 inh inactive, PglD DTNB inactive, RAD52 inh 86.1, CASP6 VEID inh inactive, UUG fidelity inactive and DNA binder FP inactive.
Cc1ccc(C)c(OCCCCN2CCCCC2)c1 was read as RAD54 inh inactive, PglD DTNB inactive, RAD52 inh inactive, CASP6 VEID inh inactive, UUG fidelity inactive and INS-1E GSIS act inactive.
For CCCNC(=O)C[C@H]1CC[C@H]2[C@H](COc3ccc(NC(=O)c4ccc(C(F)(F)F)cc4)cc3C(=O)N2C)O1 the results were RAD54 inh inactive, PglD DTNB inactive, RAD52 inh inactive, CASP6 VEID inh inactive, UUG fidelity inactive and INS-1E GSIS act inactive.
Screening COc1cc(/C=C2\SC(=O)N(CCN)C2=O)ccc1OS(=O)(=O)c1cc(C)ccc1C returned RAD52 inh 83.7, CASP6 VEID inh inactive, INS-1E GSIS act inactive and DNA binder FP inactive.
`NCCN1C(=O)S/C(=C\c2ccc3c(c2)OCO3)C1=O` gave RAD52 inh inactive, CASP6 VEID inh inactive and INS-1E GSIS act inactive.
O=C(NCCN1CCCC1)c1ccc2c(c1)N(Cc1cccc(Cl)c1)C(=O)c1ccccc1S2(=O)=O was read as RAD54 inh inactive, PglD DTNB inactive, RAD52 inh inactive, CASP6 VEID inh inactive, UUG fidelity inactive and INS-1E GSIS act inactive.
Cc1cccc(CN2C(=O)c3ccccc3S(=O)(=O)c3ccc(C(=O)NCCCN4CCCC4)cc32)c1 was read as RAD54 inh inactive, PglD DTNB inactive, RAD52 inh 51.4, CASP6 VEID inh inactive, UUG fidelity inactive, INS-1E GSIS act inactive and DNA binder FP inactive.
For CC1=C(C(=O)N(C(C)C)C(C)C)CC(CC(=O)NCc2cccc3ccccc23)C(=O)N1Cc1ccc(F)cc1 (configuration not stated) the results were RAD54 inh inactive, PglD DTNB inactive, RAD52 inh inactive, CASP6 VEID inh inactive, UUG fidelity inactive and INS-1E GSIS act inactive.
Screening O=[N+]([O-])c1ccc2c(c1)C(N1CCN(CCO)CC1)Cc1ccc(F)cc1S2 (configuration not stated) returned RAD54 inh inactive, PglD DTNB inactive, RAD52 inh inactive, CASP6 VEID inh inactive and UUG fidelity inactive.
For Fc1ccc2c(c1)Sc1ccc(Cl)cc1CC2N1CCN(CCC2OCCO2)CC1 (configuration not stated) the results were RAD52 inh 81.2, CASP6 VEID inh inactive, INS-1E GSIS act inactive and DNA binder FP inactive.
For COc1cccc(N2CC(C(=O)Nc3nnc(SCc4ccccn4)s3)CC2=O)c1 (configuration not stated) the results were RAD54 inh inactive, PglD DTNB inactive, UUG fidelity inactive and INS-1E GSIS act inactive.
